Reference: ChEMBL document CHEMBL5385960, “Screening of efficient salicylaldoxime reactivators for DFP and paraoxon-inhibited acetylcholinesterase” (2024)

By UniProt entry, the sequences of proteins in these tests, tags left out. Where a name states a change or a piece, a line headed by the entry shows the natural chain unless it says otherwise.
UniProt P22303: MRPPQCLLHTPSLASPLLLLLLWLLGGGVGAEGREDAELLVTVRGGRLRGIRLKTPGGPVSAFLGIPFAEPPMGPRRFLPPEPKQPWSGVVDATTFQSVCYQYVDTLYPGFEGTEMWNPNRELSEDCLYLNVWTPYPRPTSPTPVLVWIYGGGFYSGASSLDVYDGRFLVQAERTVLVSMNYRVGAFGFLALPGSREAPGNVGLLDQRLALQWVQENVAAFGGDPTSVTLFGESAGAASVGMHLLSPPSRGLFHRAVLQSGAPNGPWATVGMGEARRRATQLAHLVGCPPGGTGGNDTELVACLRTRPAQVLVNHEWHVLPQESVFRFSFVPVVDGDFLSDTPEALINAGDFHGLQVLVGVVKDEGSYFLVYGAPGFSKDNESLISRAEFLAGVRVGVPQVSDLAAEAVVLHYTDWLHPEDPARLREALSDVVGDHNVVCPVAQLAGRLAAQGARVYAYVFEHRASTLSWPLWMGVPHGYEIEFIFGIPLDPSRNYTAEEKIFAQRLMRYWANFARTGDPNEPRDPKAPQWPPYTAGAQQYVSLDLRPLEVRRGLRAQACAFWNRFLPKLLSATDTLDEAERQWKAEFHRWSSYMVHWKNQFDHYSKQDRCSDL

Experiments:
[1] = molecular target: Acetylcholinesterase (Homo sapiens) (UniProt P22303); assay: Reactivation of DFP-inhibited human erythrocyte AChE using acetylthiocholine as substrate at 100 uM preincubated with DFP for 15 mins followed by compound addition for 30 mins and further incubated with substrate for 20 mins by DTNB based Ellman's method relative to control; design: scale not given: the % may be the effect or the level left; conditions: time 50.0 min
[2] = molecular target: Acetylcholinesterase (Homo sapiens) (UniProt P22303); assay: Reactivation of paraoxon-inhibited human erythrocyte AChE using acetylthiocholine as substrate at 100 uM preincubated with paraoxon for 15 mins followed by compound addition for 30 mins and further incubated with substrate for 20 mins by DTNB based Ellman's method relative to control; design: scale not given: the % may be the effect or the level left; conditions: time 50.0 min
[3] = molecular target: Acetylcholinesterase (Homo sapiens) (UniProt P22303); assay: Reactivation of paraoxon-inhibited human erythrocyte AChE using acetylthiocholine as substrate at 10 uM preincubated with paraoxon for 15 mins followed by compound addition for 30 mins and further incubated with substrate for 20 mins by DTNB based Ellman's method relative to control; design: scale not given: the % may be the effect or the level left; conditions: time 50.0 min
[4] = molecular target: Acetylcholinesterase (Homo sapiens) (UniProt P22303); assay: Reactivation of DFP-inhibited human erythrocyte AChE using acetylthiocholine as substrate at 10 uM preincubated with DFP for 15 mins followed by compound addition for 30 mins and further incubated with substrate for 20 mins by DTNB based Ellman's method relative to control; design: scale not given: the % may be the effect or the level left; conditions: time 50.0 min
[5] = molecular target: Acetylcholinesterase (Homo sapiens) (UniProt P22303); assay: Reactivation of DFP-inhibited human erythrocyte AChE using acetylthiocholine as substrate assessed as reactivation rate constant preincubated with DFP for 15 mins followed by compound and substrate addition and measured every 5 to 10 mins for 120 mins by DTNB based Ellman's method; conditions: filed as activator
[6] = molecular target: Acetylcholinesterase (Homo sapiens) (UniProt P22303); assay: Reactivation of paraoxon-inhibited human erythrocyte AChE using acetylthiocholine as substrate assessed as second order reactivation rate constant preincubated with paraoxon for 15 mins followed by compound and substrate addition and measured every 5 to 10 mins for 120 mins by DTNB based Ellman's …; conditions: filed as activator
[7] = molecular target: Acetylcholinesterase (Homo sapiens) (UniProt P22303); assay: Reactivation of paraoxon-inhibited human erythrocyte AChE using acetylthiocholine as substrate assessed as reactivation rate constant preincubated with paraoxon for 15 mins followed by compound and substrate addition and measured every 5 to 10 mins for 120 mins by DTNB based Ellman's method; conditions: filed as activator
[8] = molecular target: Acetylcholinesterase (Homo sapiens) (UniProt P22303); assay: Reactivation of DFP-inhibited human erythrocyte AChE using acetylthiocholine as substrate assessed as second order reactivation rate constant preincubated with DFP for 15 mins followed by compound and substrate addition and measured every 5 to 10 mins for 120 mins by DTNB based Ellman's method; conditions: filed as activator
[9] = molecular target: Acetylcholinesterase (Homo sapiens) (UniProt P22303); assay: Reactivation of paraoxon-inhibited human erythrocyte AChE using acetylthiocholine as substrate assessed as fold change in second order reactivation rate constant preincubated with paraoxon for 15 mins followed by compound and substrate addition and measured every 5 to 10 mins for 120 mins by DTNB …

Compound | Activity [1] | Activity [2] | Activity [3] | Activity [4] | Activity ([1]; filed as activator) | Activity ([2]; filed as activator) | Activity ([4]; filed as activator) | K [5] | K [6] | Activity ([3]; filed as activator) | K [7] | K [8] | fold change (FC) ([9]; filed as activator) | fold change (FC) [9]
Cc1cc(/C=N/O)c(O)c(CN2CCN(c3ccc(Cl)cc3)CC2)c1 | 19.3% | 5.1% | 5% | 5.1% |  |  |  |  |  |  |  |  |  | 
Cc1cc(/C=N/O)c(O)c(CN2CCC(c3ccc(F)cc3)CC2)c1 |  |  | 11.3% |  | 48.3% | 40.6% | 40.8% |  |  |  |  |  |  | 
Cc1cc(/C=N/O)c(O)c(CN2CCN(c3ccccc3Cl)CC2)c1 |  | 19.2% | 4.4% | 17.8% | 40.5% |  |  |  |  |  |  |  |  | 
O/N=C/c1cc(Cl)cc(CN2CCN(c3ccc(Br)cc3)CC2)c1O | 4.5% | 23.7% | 16.5% | 2.1% |  |  |  |  |  |  |  |  |  | 
Cc1cc(/C=N/O)c(O)c(CN2CCC(c3ccncc3)CC2)c1 |  |  |  |  | 72.5% | 72.1% | 40.3% | 9.2 10^-3/min | 19.3 M⁻¹ s⁻¹ | 41.6% | 11.5 10^-3/min | 5.5 M⁻¹ s⁻¹ |  | 
O/N=C/c1cc(Cl)cc(CN2CCN(c3ccccc3Cl)CC2)c1O |  | 10.9% | 8.1% | 28.5% | 44.1% |  |  |  |  |  |  |  |  | 
Cc1cc(/C=N/O)c(O)c(CN2CCN(c3ccc([N+](=O)[O-])cc3Cl)CC2)c1 |  |  |  |  | 59% | 77.6% | 41% | 6.8 10^-3/min | 76 M⁻¹ s⁻¹ | 53.9% | 12.3 10^-3/min | 6 M⁻¹ s⁻¹ |  | 
O=[N+]([O-])c1ccc(N2CCN(Cc3cc(Br)cc(/C=N/O)c3O)CC2)cc1 |  |  |  |  | 66.6% | 83.8% | 54.8% | 3.5 10^-3/min | 196 M⁻¹ s⁻¹ | 68.5% | 10.8 10^-3/min | 21 M⁻¹ s⁻¹ |  | 
Cc1cc(/C=N/O)c(O)c(CN2CCN(c3ccccn3)CC2)c1 |  |  | 30.7% | 30.4% | 56% | 63.9% |  |  |  |  |  |  |  | 
O/N=C/c1cc(Cl)cc(CN2CCC(c3ccncc3)CC2)c1O |  |  |  |  | 81.3% | 73.5% | 49.4% | 5.7 10^-3/min | 87.3 M⁻¹ s⁻¹ | 57.1% | 26.9 10^-3/min | 16.5 M⁻¹ s⁻¹ |  | 
O/N=C/c1cc(Cl)cc(CN2CCN(c3ccc(O)cc3)CC2)c1O |  | 35.6% | 22.6% | 33.1% | 52.2% |  |  |  |  |  |  |  |  | 
O/N=C/c1cc(Cl)cc(CN2CCN(c3ccccc3)CC2)c1O | 25.1% | 13.5% | 4.1% | 5.8% |  |  |  |  |  |  |  |  |  | 
Cc1cc(/C=N/O)c(O)c(CN2CCN(c3ccc(C(F)(F)F)cc3)CC2)c1 |  |  |  | 37.3% | 63.5% | 69% |  | 3.5 10^-3/min | 9.67 M⁻¹ s⁻¹ | 41.7% | 2.5 10^-3/min | 8.83 M⁻¹ s⁻¹ |  | 
Cc1cc(/C=N/O)c(O)c(CN2CCN(c3ccccc3)CC2)c1 | 37.1% | 9.5% | 4.7% | 15.7% |  |  |  |  |  |  |  |  |  | 
O/N=C/c1cc(Cl)cc(CN2CCN(c3ccccc3F)CC2)c1O |  | 25.2% | 13.7% | 31.3% | 57.9% |  |  |  |  |  |  |  |  | 
Cc1cc(/C=N/O)c(O)c(CN2CCN(c3ccccc3F)CC2)c1 |  | 18.5% | 6.1% | 27.9% | 59.3% |  |  |  |  |  |  |  |  | 
Cc1cc(/C=N/O)c(O)c(CN2CCN(c3ccc(F)cc3)CC2)c1 | 38.3% | 26.5% | 7.8% | 19.4% |  |  |  |  |  |  |  |  |  | 
O/N=C/c1cc(Cl)cc(CN2CCN(c3ccncc3)CC2)c1O |  |  |  |  | 86.7% | 90.3% |  | 12.5 10^-3/min | 524 M⁻¹ s⁻¹ | 75.6% | 31.2 10^-3/min | 198 M⁻¹ s⁻¹ |  | 

Compound | Activity [1] | Activity [2] | Activity [3] | Activity [4] | Activity ([1]; filed as activator) | Activity ([2]; filed as activator) | Activity ([4]; filed as activator) | K [5] | K [6] | Activity ([3]; filed as activator) | K [7] | K [8] | fold change (FC) ([9]; filed as activator) | fold change (FC) [9]
Cc1ccc(N2CCN(Cc3cc(C)cc(/C=N/O)c3O)CC2)cc1 |  | 34.2% | 9.1% | 28.5% | 54.3% |  |  |  |  |  |  |  |  | 
O/N=C/c1cc[n+](COC[n+]2ccccc2/C=N/O)cc1 |  |  |  |  | 92.8% | 90.9% |  | 7.3 10^-3/min | 542 M⁻¹ s⁻¹ |  | 26.5 10^-3/min | 256 M⁻¹ s⁻¹ |  | 
O/N=C/c1cc(Br)cc(CN2CCN(c3ccc(C(F)(F)F)cc3)CC2)c1O |  | 37.8% | 11.7% | 20% | 40.8% |  |  |  |  |  |  |  |  | 
Cc1cc(/C=N/O)c(O)c(CN2CCN(c3ccncc3)CC2)c1 |  |  |  |  |  | 94.9% |  |  | 914 M⁻¹ s⁻¹ |  |  | 532 M⁻¹ s⁻¹ | 5 | 
Cc1cc(/C=N/O)c(O)c(CN2CCN(c3ccc(Br)cc3)CC2)c1 | 4.9% | 36% | 23.4% | 2.7% |  |  |  |  |  |  |  |  |  | 
O/N=C/c1cc(Cl)cc(CN2CCN(c3ccc(C(F)(F)F)cc3)CC2)c1O | 37.5% |  | 21.5% | 26.6% |  | 44.6% |  |  |  |  |  |  |  | 
Cc1ccc(N2CCN(Cc3cc(Cl)cc(/C=N/O)c3O)CC2)cc1 |  | 15.3% | 9.9% | 25.7% | 40% |  |  |  |  |  |  |  |  | 
O/N=C/c1cc(Cl)cc(CN2CCN(c3ccc(F)cc3)CC2)c1O | 34.7% | 23.5% | 12% | 27.3% |  |  |  |  |  |  |  |  |  | 
O/N=C/c1cc(Cl)cc(CN2CCC(c3ccc(F)cc3)CC2)c1O |  |  |  |  | 66.5% | 75.9% | 47.6% | 2.6 10^-3/min | 2.83 M⁻¹ s⁻¹ | 40.2% | 3.5 10^-3/min | 2.67 M⁻¹ s⁻¹ |  | 
O=[N+]([O-])c1ccc(N2CCN(Cc3cc(Cl)cc(/C=N/O)c3O)CC2)cc1 |  |  |  |  | 77.2% | 92.4% | 52.5% | 2.5 10^-3/min | 206 M⁻¹ s⁻¹ | 78.8% | 25.2 10^-3/min | 16.8 M⁻¹ s⁻¹ |  | 
Cc1cc(/C=N/O)c(O)c(CN2CCN(c3ccc(O)cc3)CC2)c1 |  |  | 20.3% | 22% | 46.9% | 43.2% |  |  |  |  |  |  |  | 
O/N=C/c1cc(F)cc(CN2CCN(c3ccncc3)CC2)c1O |  |  | 34.4% | 24.1% | 53.2% | 50.3% |  |  |  |  |  |  |  | 
O/N=C/c1cc(Br)cc(CN2CCN(c3ccncc3)CC2)c1O |  |  |  |  | 79.2% | 86.2% | 45.8% | 12 10^-3/min | 257 M⁻¹ s⁻¹ | 71.8% | 26.4 10^-3/min | 164 M⁻¹ s⁻¹ |  | 
O=[N+]([O-])c1ccc(N2CCN(Cc3cc(Cl)cc(/C=N/O)c3O)CC2)c(Cl)c1 |  |  |  |  | 68.9% | 80.7% | 48.2% | 12.2 10^-3/min | 110 M⁻¹ s⁻¹ | 59.1% | 2.9 10^-3/min | 6.67 M⁻¹ s⁻¹ |  | 
Cc1cc(/C=N/O)c(O)c(CN2CCN(c3ccc([N+](=O)[O-])cc3)CC2)c1 |  |  |  |  | 80.8% | 97.4% | 58.7% | 2.6 10^-3/min | 409 M⁻¹ s⁻¹ | 79% | 31.9 10^-3/min | 22.2 M⁻¹ s⁻¹ |  | > 2
O/N=C/c1cc(Cl)cc(CN2CCN(c3ccccn3)CC2)c1O |  |  | 39.5% | 28.4% | 50% | 65.5% |  |  |  |  |  |  |  | 
O/N=C/c1cc(Cl)cc(CN2CCN(c3ccc(Cl)cc3)CC2)c1O | 9.9% | 3.2% | 3.3% | 3.2% |  |  |  |  |  |  |  |  |  | 
